Source: US5189023A

The chains behind the UniProt entries cited, without tags or fusion partners. Residues count along the entry.
UniProt P00797, 67-406 limits assumed: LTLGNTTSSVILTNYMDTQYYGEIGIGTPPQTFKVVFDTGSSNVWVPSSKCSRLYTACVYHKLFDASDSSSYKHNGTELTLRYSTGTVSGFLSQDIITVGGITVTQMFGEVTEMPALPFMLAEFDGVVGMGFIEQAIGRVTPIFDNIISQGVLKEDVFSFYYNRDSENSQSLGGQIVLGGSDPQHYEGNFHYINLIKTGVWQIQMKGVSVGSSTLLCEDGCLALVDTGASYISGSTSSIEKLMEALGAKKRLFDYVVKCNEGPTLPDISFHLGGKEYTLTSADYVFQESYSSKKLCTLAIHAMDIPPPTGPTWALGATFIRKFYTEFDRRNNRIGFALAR

Molecular target: human kidney renin (Homo sapiens, UniProt P00797)
Experiment: Radioimmunoassay screen for renin inhibitors (angiotensin I generation)
Procedure: The in vitro method for the screening of anti-renin compounds involves, first, angiotensin I generation, and second, the quantitation of the angiotensin I produced by radioimmunoassay.
The incubation medium consisted of 20 μl of purified human plasma angiotensinogen (1); 10 μl of human kidney renin (2); 5 μl of phenylmethylsulfonyl fluoride; 10 μl of disodium EDTA (10 mM); 10 μl of antirenin compound (5×10^-3, 5×10^-4, 5×10^-5) in dimethylformamide, or ethanol and a suitable amount of maleate buffer (77 mM, pH 6.0) to make a final volume of 500 μl. The reaction mixture is incubated for one hour at 37° C. and the enzymatic reaction is stopped by placing the tube in ice-cold water. The angiotensin I generated during the incubation is measured by a radioimmunoassay plasma renin activity kit (Clinical Assays, Inc.).
The incubation medium consisted of either 100 μl aliquots of the above reaction mixture or a standard amount of angiotensin I; 1000 μl of phosphate buffer (100 mM, pH7.6) and 100 μl of (^125 I)angiotensin in a gamma-coat, tube. After three hours of incubation at room temperature, the tubes are decanted, and the radioactivity of each tube is determined in a gamma counter. Duplicate determinations were performed for each incubation. The results are expressed in ng of angiotensin I generated per ml of generation medium per hour of incubation (ng/AI/ml/hr).
The results of this test on representative compounds of this invention appear in Table I, expressed as an IC50.
(1) The human plasma angiotensinogen derived from the blood of a person receiving oral contraceptive pills is purified by chromatography on a pepstatin-aminohexyl-agarose column.
(2) Human renin is prepared from human kidney.

[1] = read-out: IC50 Molar Concentration, purified human plasma angiotensinogen, maleate buffer pH 6.0, one hour at 37° C.
[2] = read-out: IC50 Molar Concentration, purified human plasma angiotensinogen, maleate buffer pH 6.0, one hour at 37° C., tested form: 2HCl
[3] = read-out: IC50 Molar Concentration, purified human plasma angiotensinogen, maleate buffer pH 6.0, one hour at 37° C., tested form: HCl

IC50 [1] [nM] | IC50 [2] [nM] | IC50 [3] [nM] | SMILES
55 |  |  | CC(C)C[C@H](NP(=O)(OCCCBr)OCCc1ccccc1)C(=O)N[C@@H](CC1CCCCC1)[C@@H](O)[C@@H]1CCCO1 (stereo partly shown)
120 | 82 |  | CC(C)C[C@H](NP(=O)(OCCNCc1cccnc1)OCCc1ccccc1)C(=O)N[C@@H](CC1CCCCC1)[C@@H](O)[C@@H]1CCCO1 (single isomer, unassigned)
3.5 |  |  | CCOP(=O)(OCC)O[C@@H](CC1CCCCC1)C(=O)N[C@@H](CC(C)C)C(=O)N[C@@H](CC1CCCCC1)[C@@H](O)C1CCCO1 (stereo partly shown)
100 |  |  | CC(C)C[C@H](NP(=O)(OCCNCc1ccccn1)OCCc1ccccc1)C(=O)N[C@@H](CC1CCCCC1)[C@@H](O)[C@@H]1CCCO1 (single isomer, unassigned) [drawing 50]
51 |  |  | COP(=O)(CCCc1ccccc1)N[C@@H](CC(C)C)C(=O)N[C@@H](CC1CCCCC1)[C@@H](O)[C@@H]1CCCO1 (stereo partly shown)
0.71 |  |  | CC(C)COP(=O)(N[C@@H](Cc1ccccc1)C(=O)N[C@@H](CC(C)C)C(=O)N[C@@H](CC1CCCCC1)[C@@H](O)[C@@H]1CCCS1)OCCBr (stereo partly shown)
3 |  |  | CCOP(=O)(OCC)O[C@@H](Cc1ccccc1)C(=O)N[C@@H](CC(C)C)C(=O)N[C@@H](CC1CCCCC1)[C@@H](O)[C@@H]1CCCO1
140 |  |  | CC(C)C[C@H](NP(=O)(OCCBr)OCCc1ccccc1)C(=O)N[C@@H](CC1CCCCC1)[C@@H](O)[C@@H]1CCCO1 (stereo partly shown)
3 |  |  | CCOP(=O)(N[C@@H](CC1CCCCC1)C(=O)N[C@@H](CC(C)C)C(=O)N[C@@H](CC1CCCCC1)[C@@H](O)C1CCCO1)OCC (stereo partly shown)
0.1 |  |  | CCOP(=O)(N[C@@H](CC1CCCCC1)C(=O)N[C@@H](CC(C)C)C(=O)N[C@@H](CC1CCCCC1)[C@@H](O)[C@@H]1CCCO1)OCC
27 |  |  | CC(C)C[C@H](NP(=O)(OCc1ccccc1)OCc1ccccc1)C(=O)N[C@@H](CC1CCCCC1)[C@@H](O)[C@@H]1CCCO1
8.1 |  |  | CCOP(=O)(N[C@@H](Cc1ccccc1)C(=O)N[C@@H](CC(C)C)C(=O)N[C@@H](CC1CCCCC1)[C@@H](O)[C@H]1CCCO1)OCC
290 |  |  | CCOP(=O)(OCC)O[C@@H](Cc1ccccc1)C(=O)N[C@@H](CC(C)C)C(=O)N[C@@H](CC1CCCCC1)[C@@H](O)c1cccs1
83 |  |  | CC(C)C[C@H](NP(=O)(OCCNCc1ccccn1)OCCc1ccccc1)C(=O)N[C@@H](CC1CCCCC1)[C@@H](O)[C@@H]1CCCO1 (single isomer, unassigned) [drawing 51]
1800 |  |  | CC(C)C[C@H](NP(=O)(ONC(=O)OCc1ccccc1)Oc1ccccc1)C(=O)N[C@@H](CC1CCCCC1)[C@@H](O)[C@@H]1CCCO1 (stereo partly shown)
0.2 |  |  | CCOP(=O)(N[C@@H](Cc1ccccc1)C(=O)N[C@@H](CC(C)C)C(=O)N[C@@H](CC1CCCCC1)[C@@H](O)C1CCCO1)OCC (stereo partly shown)

IC50 [1] [nM] | IC50 [2] [nM] | IC50 [3] [nM] | SMILES
 |  | 220 | CC(C)C[C@H](NP(=O)(OCCNC1CCCCC1O)OCCc1ccccc1)C(=O)N[C@@H](CC1CCCCC1)[C@@H](O)[C@@H]1CCCO1 (stereo partly shown)
3.5 |  |  | CC(C)COP(=O)(N[C@@H](Cc1ccccc1)C(=O)N[C@@H](CC(C)C)C(=O)N[C@@H](CC1CCCCC1)[C@@H](O)[C@@H]1CCCS1)OCCN1CCOCC1 (stereo partly shown)
0.1 |  |  | CCOP(=O)(N[C@@H](Cc1ccccc1)C(=O)N[C@@H](CC(C)C)C(=O)N[C@@H](CC1CCCCC1)[C@@H](O)[C@@H]1CCCO1)OCC
16 |  |  | CC(C)C[C@H](NP(=O)(OCCCc1ccccc1)OCCc1ccccc1)C(=O)N[C@@H](CC1CCCCC1)[C@@H](O)[C@@H]1CCCO1 (stereo partly shown)
3100 |  |  | CCCCOC(=O)C[C@H](NC(=O)[C@H](Cc1ccccc1)NP(=O)(OCC)OCC)C(=O)N[C@@H](CC1CCCCC1)[C@@H](O)[C@@H]1CCCO1
 | 100 |  | CC(C)C[C@H](NP(=O)(OCCNCc1ccncc1)OCCc1ccccc1)C(=O)N[C@@H](CC1CCCCC1)[C@@H](O)[C@@H]1CCCO1 (stereo partly shown)
1.5 |  |  | CCOP(=O)(OCC)O[C@@H](Cc1ccccc1)C(=O)N[C@@H](CC(C)C)C(=O)N[C@@H](CC1CCCCC1)[C@@H](O)C1CCCO1 (stereo partly shown)
 |  | 33 | CCOP(=O)(N[C@@H](Cc1ccc(OC)cc1)C(=O)N[C@@H](CC(C)C)C(=O)N[C@@H](CC1CCCCC1)[C@@H](O)[C@@H]1CCCO1)OCCN(C)C (stereo partly shown)
140 |  |  | CCOP(=O)(OCC)O[C@@H](Cc1ccccc1)C(=O)N[C@@H](CC(C)C)C(=O)N[C@@H](CC1CCCCC1)[C@@H](O)c1ccco1
550 |  | 640 | CC(C)C[C@H](NP(=O)(OCCc1ccccc1)OCCN(C)C)C(=O)N[C@@H](CC1CCCCC1)[C@@H](O)[C@@H]1CCCO1 (single isomer, unassigned)
33 |  |  | CC(=O)NCCOP(=O)(CCCc1ccccc1)N[C@@H](CC(C)C)C(=O)N[C@@H](CC1CCCCC1)[C@@H](O)[C@@H]1CCCO1 (stereo partly shown)
 |  | 270 | CC(C)C[C@H](NP(=O)(OCCc1ccccc1)OCCN1CCNC(=O)C1)C(=O)N[C@@H](CC1CCCCC1)[C@@H](O)[C@@H]1CCCO1 (stereo partly shown)
8100 |  |  | CC(C)C[C@H](NP(=O)(Oc1ccccc1)Oc1ccccc1)C(=O)N[C@@H](CC1CCCCC1)[C@@H](O)[C@@H]1CCCO1
0.52 |  |  | CCOP(=O)(N[C@@H](Cc1ccc(OC)cc1)C(=O)N[C@@H](CC(C)C)C(=O)N[C@@H](CC1CCCCC1)[C@@H](O)[C@@H]1CCCO1)OCCBr (stereo partly shown)
1000 |  |  | CCOP(=O)(N[C@@H](Cc1ccccc1)C(=O)N[C@@H](CC(=O)O)C(=O)N[C@@H](CC1CCCCC1)[C@@H](O)[C@@H]1CCCO1)OCC
 |  | 230 | CC(C)C[C@H](NP(=O)(OCCNCc1ccccc1)OCCc1ccccc1)C(=O)N[C@@H](CC1CCCCC1)[C@@H](O)[C@@H]1CCCO1 (stereo partly shown)

Where two headings read alike, the source gives them in different places.
